The values that follow come from patent US12507703B2, “Methods, devices and compositions for preserving human milk” (The Trustees of Princeton University, priority 2023, dated 2025).

The test system of one assay is glycerol. The experiment in a line: Glycerol-Glo assay of glycerol (byproduct of fat breakdown) in stored human milk. The assay is classed as biochemical. The note with it: human milk stored 1 week at −20° C.; for Glycerol (RLU): Table 7, single compound 20 mg/mL, inhibited if RLU <150,000.
Another assay concerns lipase. Kind of assay: Lipase/lipolysis assay (EnzChek Lipase Substrate, quenched BODIPY-fatty acid conjugate) on stored human milk. The note with it: for Hit in lipase inhibition screen (in words): approximately 2700 compound screen, hit = RFU <400.
Where [1] appears, read: Table 7, single compound 20 mg/mL, human milk stored 1 week at −20° C., inhibited if RFU <400.
[2] abbreviates: human milk stored 1 week at −20° C.
[3] abbreviates: Biolog PM2a compound added to fresh human milk, stored 1 week at −20° C., RFU <400 = hit.
Where [4] appears, read: Food Additive Library compound added to fresh human milk, stored 1 week at −20° C., thawed at room temperature, RFU of <400 considered a hit.
Where [5] appears, read: compound added to fresh human milk, stored 1 week at −20° C., thawed at room temperature, RFU <400 considered a hit.
Where [6] appears, read: Food-Sourced Compound Library compound added to fresh human milk, stored 1 week at −20° C., thawed at room temperature, RFU <400 considered a hit.

For Tween 20, in the assay on glycerol, the “Glycerol (RLU)” value came to 94118 RLU; the “Effect on glycerol production (in words)” value was “reduced lipase and glycerol production”. In addition, the “Lipase (RFU)” value in the assay with lipase (Biolog PM1 compound added to fresh human milk, stored 1 week at −20° C., RFU <400 = hit) was found to be 1219.614 RFU. Moreover, in the assay on lipase (Biolog PM5 compound added to fresh human milk, stored 1 week at −20° C., RFU <400 = hit), the “Lipase (RFU)” value came out at 284.3494 RFU. The “Lipase (RFU)” value in the assay on lipase (setting [1]) amounted to 389.079 RFU. For the same compound, in the assay on lipase (setting [2]), the “Hit in lipase inhibition screen (in words)” value is reported as “significantly inhibited lipase activity”; the “Effect on lipase / lipolysis (in words)” value was “reduced lipase and glycerol production”.

On to `CC(=O)N[C@H]1[C@H]([C@H](O)[C@H](O)CO)OC(O)(C(=O)O)C[C@@H]1O` (some centres unmarked) [N-Acetyl-Neuraminic Acid], for which the “Glycerol (RLU)” value with glycerol turned out to be 90612 RLU. Further, the “Lipase (RFU)” value with lipase (setting [3]) was found to be 264.6242 RFU; with lipase (Table 7, single compound 20 mg/mL, human milk stored 1 week at −20° C., inhibited if RFU <400, listed as N-Acetylneuraminic acid) it was 339.424 RFU; in the assay with lipase (Table 7, single compound 20 mg/mL, human milk stored 1 week at −20° C., inhibited if RFU <400, listed as N-acetylneuraminic acid), 395.436 RFU. In the assay on lipase (setting [2]), the “Hit in lipase inhibition screen (in words)” value is “significantly inhibited lipase activity”.

Consider Apple pectin, for which, in the assay with glycerol, the “Glycerol (RLU)” value came to 142165 RLU. For the same compound, the “Lipase (RFU)” value with lipase (setting [1]) worked out at 838.974 RFU.

As for `OC[C@@H](O)[C@H](O)[C@@H](O)CO` [Xylitol], the “Lipase (RFU)” value worked out at 928.7995 RFU in the assay on lipase (setting [3]), 1016.558 RFU in the assay with lipase (setting [4]) and 890.051 RFU with lipase (setting [5]).

Take `O=C(O)/C=C/CCCCCCCCC(=O)O` [Traumatic Acid]: the “Lipase (RFU)” value with lipase (setting [5]) is reported as 917.3568 RFU.

On to `CC(C(=O)O)C(O)(CC(=O)O)C(=O)O` (centres unmarked) [2-Methylcitric acid], for which the “Lipase (RFU)” value in the assay on lipase (setting [6]) is 1204.199 RFU.

As for `CC(N)=O` [Acetamide], the “Lipase (RFU)” value in the assay with lipase (setting [3]) was 1098.671 RFU; in the assay with lipase (setting [4]), 918.0344 RFU.

Turning to `Cc1ccc(C=O)o1` [Compound 5-Methylfurfural, 5-Methylfurfural], the “Lipase (RFU)” value in the assay with lipase (setting [4]) turned out to be 1073.657 RFU.

In the case of `O=c1cc(-c2ccc(O)cc2)oc2cc(O[C@@H]3O[C@H](CO)[C@@H](O)[C@H](O)[C@H]3O[C@@H]3OC[C@](O)(CO)[C@H]3O)cc(O)c12` [Apiin], the “Lipase (RFU)” value in the assay with lipase (setting [6]) is 1106.584 RFU.

In the case of `O=C1O[C@H](CO)[C@@H](O)[C@H](O)[C@H]1O` [D-(+)-Glucono-1,5-lactone], the “Lipase (RFU)” value is 1105.401 RFU in the assay with lipase (setting [4]) and 890.9945 RFU in the assay with lipase (setting [6]).

Consider `O=C(O)C=Cc1ccccc1` [Cinnamic acid], for which the entries for the “Lipase (RFU)” value in the assay with lipase (setting [4]) and with lipase (setting [5]) were 737.0173 RFU and 937.8232 RFU, respectively.

On to `O=C(O)CCCCCCCCC(=O)O` [Sebacic Acid], for which, in the assay with lipase (setting [3]), the “Lipase (RFU)” value is 998.9916 RFU.

`Nc1ccc(C(=O)O)cc1` [4-Aminobenzoic acid]: the “Lipase (RFU)” value in the assay with lipase (setting [4]) worked out at 1082.936 RFU.

Turning to `O=C1O[C@H]([C@@H](O)CO)C(O)=C1O` [Vitamin C, ascorbic acid], the “Lipase (RFU)” value in the assay on lipase (Table 7, 500 μg/mL (vitamin C, E, carbonate/bicarbonates), human milk stored 1 week at −20° C., inhibited if RFU <400) came to 696.099 RFU.

For `CC(=O)OCC=Cc1ccccc1` [Cinnamyl acetate], in the assay with lipase (setting [4]), the “Lipase (RFU)” value is 1082.491 RFU.

`CSCC[C@H](N)C(=O)O` [Methionine]: the “Lipase (RFU)” value in the assay on lipase (setting [5]) is on record as 1064.048 RFU.
